Laboratory results published in patent US7094429B2, “Process for preparing tannate liquid and semi-solid dosage forms” (Kiel Laboratories, Inc., priority 2001, dated 2006).

Details: from the results of Expt-II

Substance: Phenylephrine Tannate
- commercially available tannate salt complex soluble: at least 25.0%
